Sequences of proteins named here, by UniProt entry; tags and fusion partners are left off. Residues count along the entry.
UniProt Q62469, 27-1178, chain 1 of 2: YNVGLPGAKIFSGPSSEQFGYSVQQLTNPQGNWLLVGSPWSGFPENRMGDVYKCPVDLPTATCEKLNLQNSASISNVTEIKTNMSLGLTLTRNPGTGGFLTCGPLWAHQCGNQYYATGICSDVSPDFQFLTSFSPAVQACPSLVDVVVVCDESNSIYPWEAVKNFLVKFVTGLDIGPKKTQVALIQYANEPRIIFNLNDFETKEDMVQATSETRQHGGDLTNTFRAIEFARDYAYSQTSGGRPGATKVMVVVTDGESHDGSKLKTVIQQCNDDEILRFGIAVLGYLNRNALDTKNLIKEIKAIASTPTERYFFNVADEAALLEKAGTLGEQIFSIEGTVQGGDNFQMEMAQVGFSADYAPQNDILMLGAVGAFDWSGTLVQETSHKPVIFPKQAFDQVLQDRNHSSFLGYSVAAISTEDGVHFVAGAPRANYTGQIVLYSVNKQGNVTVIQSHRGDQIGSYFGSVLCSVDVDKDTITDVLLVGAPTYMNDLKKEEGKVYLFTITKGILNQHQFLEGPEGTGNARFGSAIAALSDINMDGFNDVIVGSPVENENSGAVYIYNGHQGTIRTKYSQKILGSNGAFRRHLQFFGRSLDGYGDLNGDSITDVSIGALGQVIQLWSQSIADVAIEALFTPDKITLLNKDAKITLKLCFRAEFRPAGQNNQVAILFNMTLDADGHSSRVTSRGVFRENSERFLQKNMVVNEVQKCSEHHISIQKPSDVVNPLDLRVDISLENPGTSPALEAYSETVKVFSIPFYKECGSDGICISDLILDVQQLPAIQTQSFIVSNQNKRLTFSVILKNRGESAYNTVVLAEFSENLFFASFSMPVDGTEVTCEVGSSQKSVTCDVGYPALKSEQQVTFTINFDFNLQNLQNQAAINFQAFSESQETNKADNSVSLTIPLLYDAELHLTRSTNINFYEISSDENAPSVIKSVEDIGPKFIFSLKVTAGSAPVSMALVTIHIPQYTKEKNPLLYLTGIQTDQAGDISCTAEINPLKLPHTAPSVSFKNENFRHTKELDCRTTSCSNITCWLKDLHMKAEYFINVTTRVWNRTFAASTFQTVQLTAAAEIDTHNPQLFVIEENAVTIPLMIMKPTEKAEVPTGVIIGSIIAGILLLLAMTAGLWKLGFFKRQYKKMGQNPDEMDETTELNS

According to US20130036481A1:

Molecular target: α2 integrin (α2β1) on mouse cortical cultures (mouse) (UniProt Q62469)
Test: cell-based or functional assay

For “Amyloid Beta (Aβ) peptide, length not stated for this assay”, the Aβ toxicity in wild type mouse cortical cultures (% of control), three doses of Aβ was 73 to 97 % of control.
